The record followed here is patent US6384186B2 (priority 1995, dated 2002).

This data set can be described thus: Solubility in organic solvents (physico-chemical data, Table 3).

With `CCC(C)C1NC(=O)C(C(C)C)N(C)C(=O)C(Cc2c[nH]c3ccccc23)NC(=O)CN(C)C(=O)C(C(C)CC)N(C)C(=O)C(C(C)C)NC(=O)CN(C)C(=O)C(C(C)CC)N(C)C(=O)C(C(C)C)N(C)C(=O)CN(C)C(=O)C(C(C)C)N(C)C(=O)C(C(C)C)N(C)C1=O` (stereo not drawn) [omphalotin], the Solubility result (in cyclohexane and t-butyl methyl ether) is “hardly soluble in cyclohexane and t-butyl methyl”; the Solubility result (in ethyl acetate) is listed as “propanol, less readily soluble in ethyl acetate and”; the Solubility entry (in methanol, acetone and 2-propanol) is “readily soluble in methanol, acetone and 2-”.
